Earlier results as cited in patent US10772886B2, “CXCR-2 inhibitors for treating crystal arthropathy disorders” (ARDEA BIOSCIENCES, INC., priority 2016, dated 2020).

Conditions: cited from earlier work

What does the source list for `COc1cc2c(c(OC)c1OC)-c1ccc(OC)c(=O)cc1[C@@H](NC(C)=O)CC2` [Colchicine, COLCHICINE, reference compound]?
diarrhea (lower dose regimen: 1.2 mg at onset of acute gout attack, then 0.6 mg after one hour): 22%; diarrhea (standard dose regimen: 1.2 mg at onset of acute gout attack, then 0.6 mg every hour for 6 hours): 73%

Read-outs that look alike come from different tables or passages of the source.
